Test results: patent publication US20070293434A9, “Binding polypeptides and methods based thereon” (priority 2000, published 2007)
Like-named read-outs stand apart in the source and are kept apart here.

Protein sequences, listed by entry. Tags and fused reporters are not part of them. Residues count along the entry.
UniProt Q9Y275, 134-285 limits assumed: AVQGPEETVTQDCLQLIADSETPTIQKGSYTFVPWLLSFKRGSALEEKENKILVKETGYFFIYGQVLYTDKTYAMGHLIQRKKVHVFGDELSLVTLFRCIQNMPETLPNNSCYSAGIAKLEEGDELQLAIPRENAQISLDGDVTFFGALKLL

Molecular target: BLyS (Homo sapiens, UniProt Q9Y275)
Assay: Fluorescence anisotropy determination of BLyS-ligand dissociation constants
Assay type: binding
Settings: for KD compared with DX814 (in words): compared to DX814
Experimental: Dissociation constants between the synthetic peptides and BLyS (free in solution) were measured by fluorescence anisotropy (FA). In these experiments, the concentration of the fluorescein-labeled peptide is held constant and the BLyS protein concentration was varied. […] Binding reactions containing 50 nM fluorescein-labeled peptide and a varied concentration of BLyS in a volume between 10 and 20 μL per well were performed in 384 well microplates. Reactions were assayed using a Tecan Polarion fluorescence polarization plate reader. Cross-competition studies between peptides were performed using 50 nM fluorescein-labeled peptide and 1-2 μM BLyS in the presence and absence of 100 μM unlabeled peptide. […] Other buffers in which dissociation constants of BLyS Binding polypeptides were […] include: […] DX818 corresponds to isolate SEQ ID NO:340, except that Asn has been […]. The KD of several BLyS binding BAML peptides was determined by fluorescence anisotropy, performed as previously described. The sequence of DX822 without the -GGK linker (see SEQ ID NO:327) matches the BAML template sequence (see Table 10).

[1] = fitc-labeled synthetic BAML peptides with GGK linker

Substance | Kd [1] | KD compared with DX814 (in words) | Kd
Ac-ANWYDSLTKLWLPDGGK-fitc [DX822] | 79 ± 54 nM | – | –
Ac-ANWYDPLTKLSLPDGGK-fitc [DX818] | 342 ± 108 nM | – | –
Ac-ANWFDPLTKLWLPDGGK-fitc [DX817] | 32 ± 26 nM | – | –
Ac-ANWYDPLTKLWLPVGGK-fitc [DX816] | 44 ± 15 nM | little effect on the KD | –
Ac-WYDPLTKLWLPDGGK-fitc [DX815] | 31 ± 13 nM | indistinguishable from that of DX814 | –
Ac-ANWYDPLTKLWLPDGGK-fitc [DX814] | 26 ± 7 nM | – | –
Ac-ANWYDPLTKLWFPDGGK-fitc [DX819] | – | – | 69 nM
